Only a part is listed here, and it is no random draw. Some salts and complexes are drawn in separate pieces, as the source files them; their charges need not balance. The source made the active and inactive calls. No stated cut-off is given here; in the data, active means inhibition above about 50%; inactive means the rest.

Protein sequences, listed by entry. Tags and fused reporters are not part of them.
UniProt Q96LD8, whole entry: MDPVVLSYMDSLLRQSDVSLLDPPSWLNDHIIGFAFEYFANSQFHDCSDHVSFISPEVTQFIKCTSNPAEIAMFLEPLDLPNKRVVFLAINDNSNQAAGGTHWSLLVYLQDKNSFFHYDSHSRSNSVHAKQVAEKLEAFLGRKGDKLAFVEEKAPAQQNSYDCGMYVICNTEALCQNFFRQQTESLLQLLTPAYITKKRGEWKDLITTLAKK

Experimental findings from PubChem BioAssay AID2540 (Sanford-Burnham Center for Chemical Genomics, 2010) are described below.

For the assay, the target named is Sentrin-specific protease 8 (Homo sapiens) (UniProt Q96LD8). The assay is described as follows: blockers of human SENP8 peptidase activity – biochemical, luminescence, primary screen (AID 2540). The settings on record: purified SENP8, Z-RLRGG-aminoluciferin cleavage, at 10 µM, active compounds read high.
Broadly, the inhibition is the drop in the measured response relative to a control, in per cent. As for `Cc1cc(C)cc(OP(C)(=O)Nc2ccccn2)c1` (configuration not stated), the inhibition was inactive: 2.41%. To `CP(=O)(Nc1cccc(Br)c1)Oc1ccccc1` (configuration not stated) belongs inactive: 5.11%. Regarding `Cc1ccc(C)c(NP(C)(=O)Oc2ccccc2)c1` (configuration not stated), the inhibition is inactive: 4.54%. In the case of `COc1ccccc1OP(C)(=O)Nc1cccc(Br)c1` (configuration not stated), the inhibition is inactive: -4.55%. With `Cc1cc(C)cc(OP(C)(=O)Nc2ccc(C)cc2C)c1` (configuration not stated) the figure was inactive: -1.93%; with `CCOC(=O)c1ccc(NP(C)(=O)Oc2cc(C)cc(C)c2)cc1` (configuration not stated), inactive: 4.65%; with `CC1=NCCc2c1[nH]c1ccccc21.O=[N+]([O-])c1cc([N+](=O)[O-])c(O)c([N+](=O)[O-])c1`, inactive: -0.846%. `O=C(O)c1cccc(Nc2c([N+](=O)[O-])cc([N+](=O)[O-])cc2[N+](=O)[O-])c1`: the inhibition was inactive: -2.8%. With `CN1CCCCC1COC(=O)C1(O)c2ccccc2CCc2ccccc21` (configuration not stated) the figure was inactive: 3.69%. To `COc1ccccc1OP(C)(=O)Nc1c(C)cccc1C` (configuration not stated) belongs inactive: 0.541%. To `CCCOc1ccc(NP(C)(=O)Oc2ccc(Cl)cc2)cc1` (configuration not stated) belongs inactive: -1.67%; to `CP(=O)(Nc1ccc(SC(F)(F)F)cc1)Oc1ccccc1` (configuration not stated), inactive: 5.38%; to `CCOC(=O)C(CC)C1=NC(C)(C)Cc2ccccc21.O=[N+]([O-])c1cc([N+](=O)[O-])c(O)c([N+](=O)[O-])c1` (configuration not stated), inactive: 2.62%. On to `CC1=C2N=C(C=C3N=C(C(C)=C4[N-][C@@](C)([C@@H]5N=C1[C@](C)(CCC(=O)NC[C@@H](C)OP(=O)([O-])O[C@H]1[C@@H](O)[C@@H](n6cnc7cc(C)c(C)cc76)O[C@@H]1CO)[C@H]5CC(N)=O)[C@@](C)(CC(N)=O)[C@@H]4CCC(N)=O)[C@@](C)(CC(N)=O)[C@@H]3CCC(N)=O)C(C)(C)[C@@H]2CCC(N)=O.[C-]#N.[Co+3]`, for which the inhibition is active: 53.9%. With `O=[N+]([O-])c1cc([N+](=O)[O-])c(Nc2nnnn2CCO)c([N+](=O)[O-])c1` the figure was inactive: 0.527%; with `O=[N+]([O-])c1cc([N+](=O)[O-])c(-c2cnn(-c3ccccc3)c2)c([N+](=O)[O-])c1`, inactive: 7.65%.

As for `Cc1nc2ccc3ccccc3c2s1.O=[N+]([O-])c1cc([N+](=O)[O-])c(O)c([N+](=O)[O-])c1`, the inhibition is inactive: -15%. With `O=[N+]([O-])c1cc([N+](=O)[O-])c(-n2nnc3ccccc32)c([N+](=O)[O-])c1` the figure was inactive: 1.8%; with `CCOP(C)(=S)SCC(=O)NC(C)C(=O)O` (configuration not stated), inactive: -1.4%.

As to `O=[N+]([O-])c1cc([N+](=O)[O-])c(O)c([N+](=O)[O-])c1.c1ccc(Oc2ccncc2)cc1`, the inhibition was inactive: -2.69%. With `CCOC(=O)c1ccc(NP(C)(=O)Oc2ccc(OC)cc2)cc1` (configuration not stated) the figure was inactive: -1.33%; with `CP(=O)(Nc1ccccn1)Oc1ccc(Cl)cc1` (configuration not stated), inactive: -4.3%; with `CP(=O)(Oc1ccccc1)OC(c1ccccc1)C(F)(F)F` (configuration not stated), inactive: -3.52%. As for `CP(=O)(Nc1ccc(SC(F)(F)F)cc1)Oc1ccc(Cl)cc1` (configuration not stated), the inhibition was inactive: -9.78%. With `Cc1cccc(C)c1OP(C)(=O)Nc1ccc(SC(F)(F)F)cc1` (configuration not stated) the figure was inactive: -8.1%. With `Cc1cc(C)cc(OP(C)(=O)Nc2ccc(SC(F)(F)F)cc2)c1` (configuration not stated) the figure was inactive: 7.43%; with `CP(=O)(NC(=O)Nc1ccccc1)Oc1ccccc1` (configuration not stated), inactive: -8.73%.

`CCc1ccc(OP(C)(=O)N2CCN(c3ccc([N+](=O)[O-])cc3)CC2)cc1` (configuration not stated): the inhibition was inactive: 1.98%. With `CP(=S)(Nn1cnnc1)Oc1ccccc1` (configuration not stated) the figure was inactive: -4.37%.

Take `COc1ccccc1OP(C)(=O)Nc1ccccc1` (configuration not stated): the inhibition was inactive: -6.16%.

Turning to `CP(=O)(Nc1ccccc1Br)Oc1ccccc1` (configuration not stated), the inhibition was inactive: 0.582%.

Consider `CCOC(=O)c1ccc(NP(C)(=O)Oc2ccccc2)cc1` (configuration not stated), for which the inhibition was inactive: 0.22%. To `Cc1ccc(NP(C)(=O)Oc2ccccc2)c(C)c1` (configuration not stated) belongs inactive: -1.38%; to `COc1ccccc1OP(C)(=O)Nc1ccc(C)cc1` (configuration not stated), inactive: 6.98%; to `COc1ccc(OP(C)(=O)Nc2cccc(F)c2)cc1` (configuration not stated), inactive: 6.08%.

With `COc1ccccc1OP(C)(=O)Nc1cc(Cl)ccc1C` (configuration not stated), the inhibition was inactive: -1.67%.

For the molecule `Cc1cc(C)cc(OP(C)(N)=O)c1` (configuration not stated), the inhibition was inactive: -7.03%. With `O=[N+]([O-])c1cc([N+](=O)[O-])c(Nc2cccnc2)c([N+](=O)[O-])c1` the figure was inactive: -5.15%; with `Cc1cccc(C)c1OP(C)(N)=O` (configuration not stated), inactive: 0.989%; with `CC(C)(C)c1ccc(OP(C)(=O)Nc2ccc(SC(F)(F)F)cc2)cc1` (configuration not stated), inactive: -5.84%.

For `CCN(CC)CCCOC(=O)C(O)(c1ccccc1)c1ccccc1`, the inhibition is inactive: 0.836%. `Cc1c(NP(C)(=O)Oc2ccc(C(C)C)cc2)c(=O)n(-c2ccccc2)n1C` (configuration not stated): the inhibition was inactive: 2.25%. To `O=[N+]([O-])c1cc([N+](=O)[O-])c(Nc2ccccn2)c([N+](=O)[O-])c1` belongs inactive: 8.29%. With `CCc1ccc(OP(C)(=O)O)cc1` the figure was inactive: 3.34%; with `COc1ccccc1OP(C)(=O)Nc1ccc(C)cc1C` (configuration not stated), inactive: 2.25%; with `CP(=O)(Nc1ccccn1)Oc1ccccc1` (configuration not stated), inactive: -5.42%. Consider `COc1ccccc1OP(C)(=O)Nc1ccc(Br)cc1` (configuration not stated), for which the inhibition is inactive: -8.47%. To `CN(C)CCOC(=O)C(O)(c1ccccc1)C1CCCC1` (configuration not stated) belongs inactive: 0.309%; to `COc1ccc(OP(C)(=O)Nc2ccccn2)cc1` (configuration not stated), inactive: 3.45%; to `Cc1nc2ccc3ccccc3c2o1.O=[N+]([O-])c1cc([N+](=O)[O-])c(O)c([N+](=O)[O-])c1`, inactive: 4.69%. To `CP(=O)(Nc1ccc(Cl)cc1Cl)Oc1ccccc1` (configuration not stated) belongs inactive: -5.16%; to `CP(=O)(OCCOc1ccccc1)OCCOc1ccccc1`, inactive: -0.105%; to `Cc1cc(C)cc(OP(C)(=O)Nc2cccc(C(F)(F)F)c2)c1` (configuration not stated), inactive: 4.25%.

As to `COc1ccc(OP(C)(=O)Nc2ccccc2Br)cc1` (configuration not stated), the inhibition is inactive: 0.443%. With `COc1ccccc1OP(C)(=O)Nc1ccc(C)c(C)c1` (configuration not stated) the figure was inactive: -2.19%; with `Nc1ccc2c(ccc3cccnc32)n1.O=[N+]([O-])c1cc([N+](=O)[O-])c(O)c([N+](=O)[O-])c1`, inactive: -6.84%; with `CP(=O)(OC12CC3CC(CC(C3)C1)C2)OC12CC3CC(CC(C3)C1)C2`, inactive: 2.45%. With `CCOC(=O)c1ccc(NP(C)(=O)Oc2ccc(Cl)cc2)cc1` (configuration not stated) the figure was inactive: 4.27%. Turning to `CP(=O)(Nc1ccc(Cl)cc1)Oc1ccc(F)cc1` (configuration not stated), the inhibition is inactive: 1.62%. With `COc1ccccc1OP(C)(=O)Nc1ccccc1Br` (configuration not stated) the figure was inactive: 2.07%; with `CC(C)(C)c1ccc(OP(C)(=O)O)cc1`, inactive: 4.78%. To `CN(C)C(=O)c1c([N+](=O)[O-])cc([N+](=O)[O-])cc1[N+](=O)[O-]` belongs inactive: 4.32%; to `COc1ccc(OP(C)(=O)Nc2ccc(Br)cc2)cc1` (configuration not stated), inactive: -9.32%; to `CCN(CC)CC(O)COC(=O)C(O)(c1ccccc1)C1CCCCC1` (configuration not stated), inactive: 1.21%.

Regarding `CCc1ccc(OP(C)(=O)Nc2cccnc2)cc1` (configuration not stated), the inhibition was inactive: 2.48%.

In the case of `CP(=O)(Oc1ccccc1)N1CCOC1=O` (configuration not stated), the inhibition is inactive: -1.8%.

As to `O=C(OCCCN1CCCC1)C(O)(c1ccccc1)C1CCCCC1` (configuration not stated), the inhibition was inactive: -0.026%.

On to `COc1ccccc1OP(C)(=O)Nc1c(C)n(C)n(-c2ccccc2)c1=O` (configuration not stated), for which the inhibition is inactive: 0.726%.

Regarding `CP(=O)(Nc1ccc2c(c1)OCCO2)Oc1ccccc1` (configuration not stated), the inhibition is inactive: -5.55%. With `Cc1ccccc1NP(C)(=O)Nc1ccccc1C` the figure was inactive: -9.42%. With `CP(=O)(Nc1ccc(SC(F)(F)F)cc1)Oc1ccc(F)cc1` (configuration not stated) the figure was inactive: 2.71%; with `CCOP(C)(=S)SCC(=O)NC(C)(CC)C(=O)O` (configuration not stated), inactive: -1.08%. Take `O=[N+]([O-])c1cc([N+](=O)[O-])c(NCC2CCS(=O)(=O)C2)c([N+](=O)[O-])c1` (configuration not stated): the inhibition is inactive: -5.74%. With `COc1ccc(OP(C)(=O)Nc2cccc(Br)c2)cc1` (configuration not stated) the figure was inactive: 3.95%.

Regarding `COc1ccc(NP(C)(=O)Oc2ccccc2OC)cc1` (configuration not stated), the inhibition was inactive: 3.92%. With `CN(C)CCOC(=O)C(O)(c1ccccc1)C1CCCCC1` (configuration not stated) the figure was inactive: -1.84%.

As for `CCN(CC)CCCOC(=O)C(O)(c1ccccc1)C1CCCCC1` (configuration not stated), the inhibition is inactive: -0.385%. Take `O=[N+]([O-])c1cc([N+](=O)[O-])c(OC2CCCCC2O)c([N+](=O)[O-])c1` (configuration not stated): the inhibition is inactive: -0.205%. With `CCCCCOc1ccc(NP(C)(=O)Oc2ccc(Cl)cc2Cl)cc1` (configuration not stated) the figure was inactive: 0.791%; with `CP(=O)(Nc1ccccc1)Oc1ccc(F)cc1` (configuration not stated), inactive: -8.3%. To `COc1ccc(OP(C)(=O)Nc2ccc(SC(F)(F)F)cc2)cc1` (configuration not stated) belongs inactive: 5.34%; to `CCOC(=O)c1ccc(NP(C)(=O)Oc2ccc(F)cc2)cc1` (configuration not stated), inactive: -1.98%. With `O=C(OCCN1CCN(CCOCc2ccccc2)CC1)C(O)(c1ccccc1)c1ccccc1` the figure was inactive: -5.61%. `O=C(OC1CN2CCC1CC2)c1ccc([N+](=O)[O-])cc1` (configuration not stated): the inhibition was inactive: -5.99%. With `COc1ccc2c(c1O)-c1c(O)c(OC)cc3c1[C@H](C2)[N+](C)(C)CC3.O=[N+]([O-])c1cc([N+](=O)[O-])c([O-])c([N+](=O)[O-])c1[O-]`, the inhibition was inactive: -2.02%. With `CC(C)c1ccc(OP(C)(=O)Nc2ccc(SC(F)(F)F)cc2)cc1` (configuration not stated) the figure was inactive: -12.8%. On to `CP(=O)(Nc1ccccc1F)Oc1ccccc1` (configuration not stated), for which the inhibition was inactive: -5.12%.
